The entries are a selection whose mix differs from that of the whole data set. The source made the active and inactive calls.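 The calls were made as follows: active = inhibition above about 50% (limit read from the data); inactive = the rest.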
Each compound was assayed on calpain II (m-calpain), Sus scrofa (assay: inhibitors of pig calpain II, primary screen, biochemical, fluorogenic peptide substrate, 1536-well (AID 1236)). Details: purified calpain II, 30 min, at 16 µM, active compounds read high.

| SMILES | inhibition |
| --- | --- |
| CC(C)/C=N\N=C(\N)N[N+](=O)[O-] | inactive: -22.9% |
| O=[As](O)(c1ccccc1Br)c1ccccc1Br | inactive: -23.3% |
| O=P1(Nc2ccccn2)COc2ccccc2OC1 | inactive: -30.3% |
| CCOP(=O)(Nc1ccc(C)cn1)OCC | inactive: -25.9% |
| CC(C)(C)C(=O)NC(Sc1ncccn1)C(Cl)(Cl)Cl (stereo unspecified) | inactive: -21.6% |
| Clc1n[nH]nc1-c1nn[nH][15n]1 | inactive: -20.5% |
| Nc1cccc2c([As](=O)(O)O)cccc12 | inactive: -137% |
| Cc1ccc(NCCc2c([N+](=O)[O-])cc([N+](=O)[O-])cc2[N+](=O)[O-])cc1 | inactive: 10.4% |
| CCCOP(=S)(Nc1nc(N)cc(=O)[nH]1)OCCC | inactive: 16.7% |
| CCOP(=O)(Nc1cccc2ccccc12)OCC | inactive: 17.2% |
| COc1cc(C2NCCC3(OCCO3)C2(C)C)cc(OC)c1OC (stereo unspecified) | inactive: 18.7% |
| O=C(OC1CN2CCC1CC2)c1ccc(Cl)cc1 (stereo unspecified) | inactive: -30.3% |
| O=[As](O)(O)c1cccnc1 | inactive: -20.9% |
| COc1cc(C(=O)NCC2(N3CCOCC3)CCCCC2)cc(Cl)c1OC(C)C | inactive: 11.6% |
| Cc1cccc(OCC(=O)OC2CN3CCC2CC3)c1 (stereo unspecified) | inactive: 6.57% |
| O=[As](O)(c1cccc(O)c1)c1cccc(O)c1 | inactive: 7.83% |
| NC(=O)Nc1ccc([As](=O)(O)O)cc1 | inactive: -19.4% |
| CCOP1(=S)c2c(C)nn(CCC#N)c2N=C(c2ccc(F)cc2)N1C (stereo unspecified) | inactive: 3.42% |
| CN(C(=O)Cc1ccccc1)[C@@H]1CC[C@]2(CCCO2)C[C@H]1N1CCCC1 | inactive: -25.3% |
| O=[N+]([O-])c1ccc2c(c1)nnn2O | inactive: 15.3% |
| O=P(Nc1nccs1)(Oc1ccccc1)Oc1ccccc1 | inactive: -4.76% |
| O=P(Nc1nccs1)(c1ccccc1)c1nc2ccccc2s1 (stereo unspecified) | inactive: 8.75% |
| CCOP1(=S)c2c(C)nn(CCC#N)c2N=C(c2ccccc2F)N1C (stereo unspecified) | inactive: -30.4% |
| CS(=O)(=O)c1cc([N+](=O)[O-])c2no[n+]([O-])c2c1 | inactive: 5% |
| O=C(O)COc1ccc([As](=O)(O)O)cc1[N+](=O)[O-] | inactive: 5.43% |
| Nc1ccccc1[As](=O)(O)c1ccccc1 | inactive: 3.09% |

— PubChem BioAssay AID1236 (Emory University Molecular Libraries Screening Center, 2008)
